{
  "source": "patent US20040176474A1",
  "about": "(priority 2003, published 2004)",
  "test": "UN Test 3(a)(i) Bureau of Explosives (BOE) impact machine drop-weight test",
  "conditions": "3.63 kg weight dropped from 25.4 cm, ten trials; failure = at least one decomposition",
  "data": [
    {"smiles": "C#CCBr", "note": "[neat propargyl bromide, 3-bromopropyne]", "values": [
      {"measurement": "BOE impact test result (pass/fail)", "value": "failed"}
    ]}
  ]
}
